Experimental data published in patent US20140255406A1.

Assays:
human IL-17 (human) [1] = target: human IL-17 (human) (UniProt Q16552); assay: SPR, Biacore T200, 25 °C, antibody captured on protein A and saturated with TNFα, then 80 nM human IL-17 injected for 2 minutes
Human IL-17A (human) = Human IL-17A (human) (UniProt Q16552); assay: SPR, Biacore T200, 37 °C, antibody captured on protein A, IL-17 in solution, 1:1 model
Human IL-17A/F (human) = Human IL-17A/F (human) (UniProt Q16552); assay: as above
human IL-17 (human) [2] = target: human IL-17 (human) (UniProt Q16552); assay: cell-based or functional assay

additional binding signal (RU) (human IL-17 (human) [1])	Kd (Human IL-17A (human)) [nM]	Kd (Human IL-17A/F (human)) [nM]	Average % inhibition of human IL-17-induced CXCL1 production in vivo (mouse plasma) (human IL-17 (human) [2]) [%]	IC50, inhibition of IL-17-induced secretion of CXCL1 by HT-29 cells (human IL-17 (human) [2]) [nM]	Substance
37	0.0089	–	–	–	bispecific antibody of the present invention (anti-TNFα / anti-IL-17; two first polypeptides of SEQ ID NO: 1 and two second polypeptides of SEQ ID NO: 2) (bispecific antibody; other documents disagree on this pair)
–	–	0.0423	81.9	0.628	bispecific antibody of the present invention (anti-TNFα / anti-IL-17; two first polypeptides of SEQ ID NO: 1 and two second polypeptides of SEQ ID NO: 2)
